Tested on: RAW 264.7 mouse macrophage-like cells (osteoclast precursors)
Assay: Cell death assay (annexin V-FITC / propidium iodide flow cytometry)
Format: cell-based
Conditions: 30-50 μM zoledronate; RAW 264.7 vs MC3T3 cells
Experimental: A preliminary study was performed to determine an optimal concentration range of zoledronate for effectively reducing the pre-osteoclast population, while simultaneously having a less harmful effect on osteoblasts. Cell death assays were conducted using mouse osteoblasts and osteoclast precursor cells at different concentrations of zoledronate (Bedford Laboratories, OH).
MC3T3 cells, which are well-established mouse calvarial cells of osteoblastic lineage, and RAW 264.7 mouse macrophage-like cells, which are well-known to form osteoclasts, were purchased from the American Type Culture Collection and Tissue (Manassas, Va.). MC3T3 and RAW 264.7 cells were grown in Dulbecco's Modified Eagle Medium supplemented with 10% fetal bovine serum, 100 μ/mL penicillin, […] streptomycin, and 0.1% fungizone (amphotericin B). […]
After treating the cells with zoledronate at concentrations of 0, 5, 10, 50, and 100 μM for 24 hours, the cells were pelleted by centrifugation and resuspended with 5 mL of PBS. Cell number was measured, and the cells were centrifuged and resuspended in binding buffer (A.G. Scientific, San Diego, Calif.) to a final cell density of 5×10^5 cells/mL. […] Monoparametric cytograms of annexin V-FITC fluorescence (FL1) versus number of events were created using the CellQuest program gating for living cells and excluding dead cells on the basis of their propidium iodide uptake.

Substance: zoledronate
- cytotoxic effects on osteoclast precursors and osteoblasts: differential cytotoxic effects

Reference: patent US20090319044A1, “Methods and Compositions for Improving the Incorporation of Orthopaedic and Orthodontic Implants” (priority 2006, published 2009)
